Laboratory results as given in ChEMBL document CHEMBL3745659, “Synthesis and Characterization of 4,11-Diaminoanthra[2,3-b]furan-5,10-diones: Tumor Cell Apoptosis through tNOX-Modulated NAD(+)/NADH Ratio and SIRT1” (J Med Chem, 2015).

System: Calf thymus DNA
Experiment: Binding affinity to calf thymus double stranded DNA by spectrophotometric titration method
Format: nucleic-acid assay
Conditions: Bos taurus
Method in brief: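 Absorption spectra of compound recorded while double-stranded DNA concentration was increased (spectrophotometric titration); extinction at absorption maxima 540 and 585 nm and band shift followed.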

Ka: 2 ×10⁶ /M
Structure (SMILES): COc1cccc2c1C(=O)c1c(O)c3c(c(O)c1C2=O)C[C@@](O)(C(=O)CO)C[C@@H]3O[C@H]1C[C@H](N)[C@H](O)[C@H](C)O1 [DOXORUBICIN]
